Measured values taken from ChEMBL document CHEMBL3108756, “Evaluation of aminohydantoins as a novel class of antimalarial agents” (ACS Med Chem Lett, 2014).
Calls of active or inactive are those of the source. No cut-off for these calls is given here.

System: Plasmepsin IV (Plasmodium falciparum)
Assay: Inhibition of Plasmodium falciparum plasmepsin-4 after 60 mins by fluorescence assay

For `COc1ccc(C2(c3ccc(OC)cc3)NC(=S)N(C3CCCCC3)C2=O)cc1`, the inhibition was “inactive”.
